Laboratory results: PubChem BioAssay (NCI)
Values joined by “and” are separate entries in the source; they are usually repeats but may differ in a detail not shown here. Identical values can stand only once. Only a part is listed here, and it is no random draw. Some structures have more than one record in an assay (separate samples or runs), and their calls can disagree. Active and inactive are the calls of the source. Cut-off read from the data, not from the text of the source: active = growth inhibition above about 70%; inactive = the rest.

Legend:
[1] = NCI Yeast Anticancer Drug Screen. Data for the rad50 strain (AID 155);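 note: 0% = growth of vehicle-only cultures of the same strain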; details: S. cerevisiae rad50 strain growth inhibition, stronger effect = higher value
[2] = NCI Yeast Anticancer Drug Screen. Data for the mec2-1 strain (AID 157); details: S. cerevisiae mec2-1 strain, stronger effect = higher value
[3] = NCI Yeast Anticancer Drug Screen. Data for the sgs1 mgt1 strain (AID 161);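 note: 0% = growth of cultures given vehicle only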; details: S. cerevisiae sgs1 mgt1 strain, stronger effect = higher value
[4] = NCI Yeast Anticancer Drug Screen. Data for the cln2 rad14 strain (AID 165);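 note: 0% = growth equal to vehicle treated cultures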; details: S. cerevisiae cln2 rad14 strain, stronger effect = higher value
[5] = NCI Yeast Anticancer Drug Screen. Data for the bub3 strain (AID 167); details: S. cerevisiae bub3 mutant strain, stronger effect = higher value
[6] = NCI Yeast Anticancer Drug Screen. Data for the mlh1 rad18 strain (AID 175); details: S. cerevisiae mlh1 rad18 strain growth inhibition, stronger effect = higher value
[7] = at 5.0 µM (retest, dose inferred, filed as 0.5)
[8] = at 50.0 µM (retest, dose inferred, filed as 5.0)

SMILES	growth inhibition [1, 7]	growth inhibition [1, 8]	growth inhibition ([1]; at 50.0 µM)	growth inhibition [2, 7]	growth inhibition [2, 8]	growth inhibition ([2]; at 50.0 µM)	growth inhibition [3, 7]	growth inhibition [3, 8]	growth inhibition ([3]; at 50.0 µM)	growth inhibition [4, 7]	growth inhibition [4, 8]	growth inhibition ([4]; at 50.0 µM)	growth inhibition [5, 7]	growth inhibition [5, 8]	growth inhibition ([5]; at 50.0 µM)	growth inhibition [6, 7]	growth inhibition [6, 8]	growth inhibition ([6]; at 50.0 µM)
O=C(c1cc(I)c(I)c(I)c1)N(CCCl)CCCl	inactive: 4%	active: 98%	active: 79.8%	inactive: 10%	active: 99%	inactive: 37.9%	inactive: 43%	active: 99%	active: 98.2%	inactive: 10%	active: 98%	inactive: 50.9%	inactive: 23%	active: 99%	active: 70%	inactive: 21%	active: 99%	active: 90.4%
O=[N+]([O-])c1cc([As](O)O)ccc1O	inactive: 46%	active: 100%	active: 99.9%	inactive: 20%	active: 99%	active: 99.9%	inactive: 42%	active: 99%	active: 99.8%	inactive: 19%	active: 99%	active: 99.5%	inactive: 49%	active: 99%	active: 99.6%	inactive: 38%	active: 98%	active: 99.8%
ClCCN(Cc1ccc(Cl)cc1)Cc1ccc(Cl)cc1	inactive: 14%	active: 97%	active: 97.7%	inactive: 9%	active: 98%	active: 96.5%	inactive: 17%	active: 98%	active: 98.5%	inactive: 9%	active: 98%	active: 97.9%	inactive: 11%	active: 97%	active: 98.5%	inactive: 31%	active: 97%	active: 98%
O=P1(N(CCCl)CCCl)NCC(CO)O1 (configuration not stated)	inactive: 48%	active: 95%	active: 87.8% and inactive: -5.1%	inactive: 18%	active: 93%	inactive: 27.5% and inactive: 7.5%	inactive: 30%	active: 93%	active: 76.2% and inactive: -6.55%	inactive: 6%	active: 84%	inactive: 15.7% and inactive: -31.6%	inactive: 44%	active: 95%	inactive: 55.1% and inactive: 7.35%	inactive: 42%	active: 95%	inactive: 46% and inactive: 15%
CCc1cc(O)c([N+](=O)[O-])c(C)c1[N+](=O)[O-]	inactive: 4%	active: 72%	active: 79.4%	inactive: 6%	active: 83%	active: 92.3%	inactive: 6%	active: 86%	inactive: -3.25%	inactive: -3%	active: 76%	active: 82.9%	inactive: -2%	active: 79%	active: 81.7%	inactive: 0%	active: 78%	inactive: 46.5%
CC(C)[C@@H]1[C@@H](C)[N+]1(C)C	inactive: 0%	inactive: -2%	inactive: 8.5%	inactive: -1%	inactive: -6%	inactive: -1.9%	inactive: -5%	inactive: -4%	inactive: 8.9%	inactive: -1%	inactive: -3%	inactive: 38.8%	inactive: -3%	inactive: -7%	inactive: 13.8%	inactive: -1%	inactive: -5%	inactive: 17.6%
CC(C)(C)NCCSP(=S)(c1ccccc1)c1ccccc1	inactive: 21%	active: 94%	inactive: 30.4%	inactive: 2%	inactive: 41%	inactive: 15.2%	inactive: 9%	active: 88%	inactive: 54.1%	inactive: 0%	inactive: 49%	inactive: 7.4%	inactive: 5%	inactive: 67%	active: 71.8%	inactive: 16%	active: 88%	inactive: 55%
C/C(=N\Nc1ccc([N+](=O)[O-])cc1[N+](=O)[O-])c1ccc(Cl)cc1[N+](=O)[O-]	inactive: 1%	inactive: -4%	inactive: -0.25%	inactive: -6%	inactive: -7%	inactive: 11.1%	inactive: 0%	inactive: -14%	inactive: -10.1%	inactive: -13%	inactive: -29%	inactive: 39.2%	inactive: 9%	inactive: 14%	inactive: 66%	inactive: -1%	inactive: -2%	inactive: -2.65%
O=C(Nc1cccc2ccccc12)N(CCBr)CCBr	inactive: 2%	active: 73%	active: 89.1%	inactive: 2%	active: 73%	inactive: 28.1%	inactive: 14%	active: 75%	active: 87.8%	inactive: 1%	inactive: 20%	inactive: 40.5%	inactive: -9%	inactive: 23%	inactive: 12%	inactive: 36%	active: 95%	inactive: 59.6%
